In PubChem BioAssay (NCI):
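Values below derive from 48-hour exposures of cells grown in 96-well plates, with endpoints linearly interpolated between the two concentrations bracketing the appropriate inhibition level. At the GI50, growth is halved. TGI: total growth inhibition.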

Legend:
Assay in all cases: inhibition of tumour cell growth, NCI panel, 48 h
M14 melanoma = test system: M14 melanoma
NCI-H522 lung = test system: NCI-H522 lung
SNB-19 CNS = test system: SNB-19 CNS
MALME-3M melanoma = test system: MALME-3M melanoma
U251 CNS = test system: U251 CNS
OVCAR-8 ovarian = test system: OVCAR-8 ovarian
HCC-2998 colon = test system: HCC-2998 colon
BT-549 breast = test system: BT-549 breast
MDA-N = test system: MDA-N
DU-145 prostate = test system: DU-145 prostate
HOP-62 NSCLC = test system: HOP-62 NSCLC
OVCAR-5 ovarian = test system: OVCAR-5 ovarian
MDA-MB-435 = test system: MDA-MB-435
SK-MEL-5 melanoma = test system: SK-MEL-5 melanoma
NCI-H226 lung = test system: NCI-H226 lung
HL-60(TB) leukemia = test system: HL-60(TB) leukemia
SF-539 CNS = test system: SF-539 CNS
HCT-15 colon = test system: HCT-15 colon
A549 NSCLC = test system: A549 NSCLC
SK-MEL-28 melanoma = test system: SK-MEL-28 melanoma
SF-295 CNS = test system: SF-295 CNS
786-0 renal = test system: 786-0 renal
SN12C renal = test system: SN12C renal
ACHN renal = test system: ACHN renal
SK-OV-3 ovarian = test system: SK-OV-3 ovarian
SR leukemia = test system: SR leukemia
EKVX NSCLC = test system: EKVX NSCLC
HT29 colon = test system: HT29 colon
NCI-H460 lung = test system: NCI-H460 lung
RPMI-8226 leukemia = test system: RPMI-8226 leukemia
UACC-257 melanoma = test system: UACC-257 melanoma
MOLT-4 leukemia = test system: MOLT-4 leukemia
MDA-MB-231 breast = test system: MDA-MB-231 breast
OVCAR-3 ovarian = test system: OVCAR-3 ovarian
T-47D breast = test system: T-47D breast
A498 renal = test system: A498 renal
COLO 205 colon = test system: COLO 205 colon
NCI-H322M lung = test system: NCI-H322M lung
IGROV1 ovarian = test system: IGROV1 ovarian
RXF 393 renal = test system: RXF 393 renal
PC-3 prostate = test system: PC-3 prostate
OVCAR-4 ovarian = test system: OVCAR-4 ovarian
UACC-62 melanoma = test system: UACC-62 melanoma
UO-31 renal = test system: UO-31 renal
KM12 colon = test system: KM12 colon
MCF7 breast = test system: MCF7 breast
HOP-92 NSCLC = test system: HOP-92 NSCLC
SK-MEL-2 melanoma = test system: SK-MEL-2 melanoma
SW-620 colon = test system: SW-620 colon
HS 578T breast = test system: HS 578T breast
CAKI-1 renal = test system: CAKI-1 renal
LOX IMVI melanoma = test system: LOX IMVI melanoma
K-562 leukemia = test system: K-562 leukemia
NCI/ADR-RES ovarian = test system: NCI/ADR-RES ovarian
TK-10 renal = test system: TK-10 renal
SF-268 CNS = test system: SF-268 CNS
HCT-116 colon = test system: HCT-116 colon
NCI-H23 lung = test system: NCI-H23 lung
CCRF-CEM leukemia = test system: CCRF-CEM leukemia
SNB-75 CNS = test system: SNB-75 CNS

Nc1cc([As](=O)(O)O)ccc1O
GI50 (M14 melanoma): > 100 µM | TGI (M14 melanoma): > 100 µM | GI50 (NCI-H522 lung): > 100 µM | TGI (NCI-H522 lung): > 100 µM | GI50 (SNB-19 CNS): > 100 µM | TGI (SNB-19 CNS): > 100 µM | GI50 (MALME-3M melanoma): > 100 µM | TGI (MALME-3M melanoma): > 100 µM | GI50 (U251 CNS): > 100 µM | TGI (U251 CNS): > 100 µM | GI50 (OVCAR-8 ovarian): > 100 µM | TGI (OVCAR-8 ovarian): > 100 µM | GI50 (HCC-2998 colon): > 100 µM | TGI (HCC-2998 colon): > 100 µM | GI50 (BT-549 breast): > 100 µM | TGI (BT-549 breast): > 100 µM | GI50 (MDA-N): > 100 µM | TGI (MDA-N): > 100 µM | GI50 (DU-145 prostate): > 100 µM | TGI (DU-145 prostate): > 100 µM | GI50 (HOP-62 NSCLC): > 100 µM | TGI (HOP-62 NSCLC): > 100 µM | GI50 (OVCAR-5 ovarian): > 100 µM | TGI (OVCAR-5 ovarian): > 100 µM | GI50 (MDA-MB-435): > 100 µM | TGI (MDA-MB-435): > 100 µM | GI50 (SK-MEL-5 melanoma): > 100 µM | TGI (SK-MEL-5 melanoma): > 100 µM | GI50 (NCI-H226 lung): > 100 µM | TGI (NCI-H226 lung): > 100 µM | GI50 (HL-60(TB) leukemia): > 100 µM | TGI (HL-60(TB) leukemia): > 100 µM | GI50 (SF-539 CNS): > 100 µM | TGI (SF-539 CNS): > 100 µM | GI50 (HCT-15 colon): > 100 µM | TGI (HCT-15 colon): > 100 µM | GI50 (A549 NSCLC): > 100 µM | TGI (A549 NSCLC): > 100 µM | GI50 (SK-MEL-28 melanoma): > 100 µM | TGI (SK-MEL-28 melanoma): > 100 µM | GI50 (SF-295 CNS): > 100 µM | TGI (SF-295 CNS): > 100 µM | GI50 (786-0 renal): > 100 µM | TGI (786-0 renal): > 100 µM | GI50 (SN12C renal): > 100 µM | TGI (SN12C renal): > 100 µM | GI50 (ACHN renal): > 100 µM | TGI (ACHN renal): > 100 µM | GI50 (SK-OV-3 ovarian): > 100 µM | TGI (SK-OV-3 ovarian): > 100 µM | GI50 (SR leukemia): > 100 µM | TGI (SR leukemia): > 100 µM | GI50 (EKVX NSCLC): > 100 µM | TGI (EKVX NSCLC): > 100 µM | GI50 (HT29 colon): > 100 µM | TGI (HT29 colon): > 100 µM | GI50 (NCI-H460 lung): > 100 µM | TGI (NCI-H460 lung): > 100 µM | GI50 (RPMI-8226 leukemia): > 100 µM | TGI (RPMI-8226 leukemia): > 100 µM | GI50 (UACC-257 melanoma): > 100 µM | TGI (UACC-257 melanoma): > 100 µM | GI50 (MOLT-4 leukemia): > 100 µM | TGI (MOLT-4 leukemia): > 100 µM | GI50 (MDA-MB-231 breast): > 100 µM | TGI (MDA-MB-231 breast): > 100 µM | GI50 (OVCAR-3 ovarian): > 100 µM | TGI (OVCAR-3 ovarian): > 100 µM | GI50 (T-47D breast): > 100 µM | TGI (T-47D breast): > 100 µM | GI50 (A498 renal): > 100 µM | TGI (A498 renal): > 100 µM | GI50 (COLO 205 colon): > 100 µM | TGI (COLO 205 colon): > 100 µM | GI50 (NCI-H322M lung): > 100 µM | TGI (NCI-H322M lung): > 100 µM | GI50 (IGROV1 ovarian): > 100 µM | TGI (IGROV1 ovarian): > 100 µM | GI50 (RXF 393 renal): > 100 µM | TGI (RXF 393 renal): > 100 µM | GI50 (PC-3 prostate): > 100 µM | TGI (PC-3 prostate): > 100 µM | GI50 (OVCAR-4 ovarian): > 100 µM | TGI (OVCAR-4 ovarian): > 100 µM | GI50 (UACC-62 melanoma): > 100 µM | TGI (UACC-62 melanoma): > 100 µM | GI50 (UO-31 renal): > 100 µM | TGI (UO-31 renal): > 100 µM | GI50 (KM12 colon): > 100 µM | TGI (KM12 colon): > 100 µM | GI50 (MCF7 breast): > 100 µM | TGI (MCF7 breast): > 100 µM | GI50 (HOP-92 NSCLC): > 100 µM | TGI (HOP-92 NSCLC): > 100 µM | GI50 (SK-MEL-2 melanoma): > 100 µM | TGI (SK-MEL-2 melanoma): > 100 µM | GI50 (SW-620 colon): > 100 µM | TGI (SW-620 colon): > 100 µM | GI50 (HS 578T breast): > 100 µM | TGI (HS 578T breast): > 100 µM | GI50 (CAKI-1 renal): > 100 µM | TGI (CAKI-1 renal): > 100 µM | GI50 (LOX IMVI melanoma): > 100 µM | TGI (LOX IMVI melanoma): > 100 µM | GI50 (K-562 leukemia): > 100 µM | TGI (K-562 leukemia): > 100 µM | GI50 (NCI/ADR-RES ovarian): > 100 µM | TGI (NCI/ADR-RES ovarian): > 100 µM | GI50 (TK-10 renal): > 100 µM | TGI (TK-10 renal): > 100 µM | GI50 (SF-268 CNS): > 100 µM | TGI (SF-268 CNS): > 100 µM | GI50 (HCT-116 colon): > 100 µM | TGI (HCT-116 colon): > 100 µM | GI50 (NCI-H23 lung): > 100 µM | TGI (NCI-H23 lung): > 100 µM | GI50 (CCRF-CEM leukemia): > 100 µM | TGI (CCRF-CEM leukemia): > 100 µM | GI50 (SNB-75 CNS): > 100 µM | TGI (SNB-75 CNS): > 100 µM
